The target in the assay is Nanoluciferase-BRD9 fusion protein (3×FLAG-NLuc-BRD9) in SYO-1 cells (Homo sapiens, UniProt Q9H8M2). Put plainly: SYO1 BRD9 NanoLuc Degradation Assay. The conditions noted are these: read-out: SYO1 BRD9-NanoLuc degradation IC50, SYO-1 cells expressing 3×FLAG-NLuc-BRD9, 6 hours incubation, 1 μM top dose.

By UniProt entry, the sequences of proteins in these tests, tags left out.
UniProt Q9H8M2, whole entry: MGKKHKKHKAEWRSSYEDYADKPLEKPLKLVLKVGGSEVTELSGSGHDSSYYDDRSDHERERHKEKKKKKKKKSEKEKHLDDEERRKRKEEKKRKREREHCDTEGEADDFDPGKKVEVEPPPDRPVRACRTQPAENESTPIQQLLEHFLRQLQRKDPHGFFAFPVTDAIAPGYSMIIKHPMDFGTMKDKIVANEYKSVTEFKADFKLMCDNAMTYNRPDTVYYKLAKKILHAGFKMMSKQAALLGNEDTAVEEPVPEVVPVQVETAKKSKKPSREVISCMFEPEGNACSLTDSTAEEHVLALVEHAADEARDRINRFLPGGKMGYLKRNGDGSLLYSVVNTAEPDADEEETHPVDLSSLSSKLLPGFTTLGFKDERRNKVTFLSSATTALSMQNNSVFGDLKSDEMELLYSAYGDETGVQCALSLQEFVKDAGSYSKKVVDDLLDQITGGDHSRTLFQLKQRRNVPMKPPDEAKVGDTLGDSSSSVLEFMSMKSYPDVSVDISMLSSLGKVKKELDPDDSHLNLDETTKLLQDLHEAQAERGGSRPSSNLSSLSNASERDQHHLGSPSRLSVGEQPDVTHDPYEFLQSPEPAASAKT

Like-named read-outs stand apart in the source and are kept apart here. A value given as a limit tells only on which side of the number the result lay.

For orientation: IC50 means the midpoint of a concentration-inhibition curve. In the case of `COc1cc(-c2cn(C)c(=O)c3cnc(N4CCOCC4)cc23)cc(OC)c1CN1CCC(C(C2CCC3(CC2)CC(Oc2ccc4c(c2)C(=O)N(C2CCC(=O)NC2=O)C4)C3)C(F)(F)F)CC1` (stereo not drawn), the half-maximal inhibitory concentration (IC50) (Table 6C, tested form: formate) is under 10 nM. Consider `COc1cc(-c2cn(C)c(=O)c3cnc(N4CCC4)cc23)cc(OC)c1CN1CCC(CCN2CCN(c3ccn4c(=O)n(C5CCC(=O)NC5=O)nc4c3)CC2)CC1` (stereo not drawn), for which the IC50 (Table 6B) is under 10 nM. For the molecule `COc1cc(-c2cn(C)c(=O)c3cnc(N(C)C)cc23)cc(OC)c1CN1CCC2(CCC(N3Cc4cc5c(cc4C3)C(=O)N(C3CCC(=O)NC3=O)C5=O)CC2)CC1` (stereo not drawn), the IC50 (Table 6B) was under 10 nM.

Turning to `COc1cc(-c2cn(C)c(=O)c3cnc(CO)cc23)cc(OC)c1CN1CCC2(CC1)CN(c1ccc3c(c1)C(=O)N(C1CCC(=O)NC1=O)C3)C2` (stereo not drawn), for the setting “Table 6C, tested form: formate”, the 50% inhibitory concentration (IC50) was 100 to 1000 nM. Turning to `CNc1cc2c(=O)n(C)cc(-c3cc(OC)c(CN(C)CC45CC(C(=O)NCCCCCOc6cccc7c6C(=O)N(C6CCC(=O)NC6=O)C7=O)(C4)C5)c(OC)c3)c2cn1` (stereo not drawn), the IC50 (Table 6B, tested form: formate) lay in the range of 10 to 100 nM. As for `CNc1cc2c(=O)n(C)cc(-c3cc(OC)c(CN4CC5CN(C(=O)CCOCCOc6ccc7c(c6)C(=O)N(C6CCC(=O)NC6=O)C7=O)CCC54)c(OC)c3)c2cn1` (stereo not drawn), the IC50 (Table 6B, tested form: formate) was under 10 nM.
